## Measured affinities in a library of Ab-14 light chain variants

The target is the same throughout: PDVDLGDISGINAS, from the HR2 region of SARS-CoV-2 spike.

Each scFv is VH, a (GGGGS)3 linker, VL, as in the parent Ab-14, and differs from it in the CDRs of the light chain only.
VH: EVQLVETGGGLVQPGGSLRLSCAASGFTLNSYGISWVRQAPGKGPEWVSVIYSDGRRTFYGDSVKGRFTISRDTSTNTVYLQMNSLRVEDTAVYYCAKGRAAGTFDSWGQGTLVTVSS
VL: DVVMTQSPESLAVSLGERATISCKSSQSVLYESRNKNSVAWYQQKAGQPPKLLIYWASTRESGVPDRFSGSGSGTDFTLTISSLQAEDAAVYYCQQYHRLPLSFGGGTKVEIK

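Phage display of a naive human antibody library on the peptide gave the parent. This is the validation round: designs drawn from the data on random variants, tested in the same kind of assay. Their group label is 14L_GP_Gibbs (GP: Gaussian process model; Gibbs: Gibbs sampling; a sequence that several methods proposed may carry one label only). The scFvs were displayed on barcoded MATa yeast, the peptide on MATalpha yeast. The frequency of each diploid, read from paired DNA barcodes, reflects how well the two displayed proteins bind. Each replicate has its own calibration line, from reference interactions of the BCL2 family. The assay was run in six technical replicates.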

Positions count from residue 1 of the parent VL; S25L puts L in place of S. Numbers give log10(Kd / nM), so 0 is 1 nM and 3 is 1 µM. Smaller is tighter. The mean shown is taken over the replicates in which the pair was detected. As a blank, each scFv also met three strains without target: over all light chain designs, 4% of these pairings were detected, typically at 2.64 and seldom below 1.59. The control count says in how many pairings with the empty strains this scFv gave a signal, with their mean in brackets. The authors averaged sequences with at least three values out of six and counted those with two or fewer as poor binders. A sequence measured in both rounds can read differently, since the two assays cover different ranges. The parent sequence was in this pool as ten entries: three were never detected, three once, and four in most replicates, with averages from 0.34 to 2.37.

changes	replicates, log10 nM	mean, log10 nM	signal with controls
S25L+S28M+L30D+E32L+K36M+S38N+W56N+Q96D	0.35 0.02 0.30 0.46 0.26 0.18	0.26	1 of 18 (3.68)
S25M+L30D+S33D+K36C+S38A+W56A+T59Q+S62E	0.09 0.16 -0.04 0.17 -0.13 0.11	0.06	0 of 18
S25I+V29M+L30E+K36V+W56Y+S62V	0.58 0.38 0.25 0.66 0.37 0.46	0.45	2 of 18 (3.34)
S25V+Q27G+V29Q+K36S+W56N+T59N	0.29 0.25 0.06 0.08 0.01 0.34	0.17	3 of 18 (2.93)
S25L+Q27P+L30E+N35L+W56N+T59Q+E61L+S62E	0.14 0.24 0.17 0.13 0.15 0.10	0.16	1 of 18 (2.48)
S25L+Q27N+V29Y+L30E+N35M+K36M+W56N+E61L+S62E	0.06 0.22 0.34 -0.08 0.27 0.41	0.20	1 of 18 (1.79)
S25F+S28Q+V29M+K36S+S38N+W56H+T59H	0.11 0.09 0.12 0.00 0.08 0.20	0.10	0 of 18
S25F+S26E+Q27H+S28M+V29D+W56S+T59Q+E61S	-0.09 -0.31 -0.46 -0.41 -0.53 -0.44	-0.37	0 of 18
S25M+S28L+V29Q+S33W+K36F+W56N+T59Y	0.28 0.39 0.22 0.34 0.62 0.40	0.37	1 of 18 (2.60)
S25C+S26Q+Q27I+L30E+Y31Q+E32L+N35Q+W56H	0.77 0.45 0.47 0.41 0.44 0.13	0.44	1 of 18 (2.84)
S25L+S26M+V29M+K36S+W56N+S62H+S103M	0.42 0.55 0.52 -0.04 -0.14 0.22	0.25	0 of 18
S25Q+S26Q+Q27F+Y31L+N35Q+K36C+W56E+S62E	1.32 0.80 0.88 0.27 0.45 0.22	0.66	0 of 18
S25W+Q27C+V29S+E32D+S33D+R34A+W56N+E61L	0.61 0.32 0.24 -0.15 0.34 0.67	0.34	2 of 18 (3.69)
S25L+Q27M+N35V+W56E+S58V+T59Q	-0.42 -0.28 -0.37 -0.32 -0.43 -0.07	-0.31	0 of 18
S25L+S26R+V29C+L30E+S33D+W56N+T59Q+E61C	0.24 0.32 0.27 0.42 0.37 0.34	0.33	1 of 18 (2.64)
S25L+S26Y+Q27G+S38A+W56G+T59Q+S62K	-0.08 -0.27 -0.53 -0.11 -0.45 0.03	-0.24	0 of 18
S25C+Y31Q+W56N+T59Q+S62R	1.04 1.06 0.50 0.41 2.30 2.23	1.26	0 of 18
S25L+V29D+L30G+W56N+E61S+S62H	0.52 0.05 0.30 -0.06 -0.15 0.18	0.14	0 of 18
S25M+S26E+Q27N+V29N+L30G+W56Q+E61M	0.39 0.06 0.01 -0.06 -0.08 0.06	0.06	1 of 18 (2.13)
S25L+S26M+Q27P+S28F+V29E+L30E+W56E	0.63 0.21 0.20 -0.05 0.08 0.16	0.21	0 of 18
S25L+S26R+Q27T+L30E+E32G+W56S	-0.07 -0.19 -0.12 -0.16 -0.15 -0.05	-0.12	3 of 18 (3.48)
S25F+V29D+S33D+R34G+N35A+W56N+E61C	0.72 0.57 0.52 0.03 0.44 0.35	0.44	0 of 18
S25F+S26Q+V29Q+K36M+W56N+T59K+E61M+S62Q+S103K	0.25 0.30 0.17 0.16 0.12 0.36	0.23	1 of 18 (2.31)
S25V+S26Y+V29H+K36D+S38N+W56N+T59Y	0.07 -0.04 -0.16 -0.03 0.13 0.08	0.01	0 of 18
S25I+S26F+L30Q+W56N+T59D+E61F	0.40 0.16 0.19 0.10 0.32 0.29	0.24	2 of 18 (2.81)
S25Q+S26Q+Q27I+L30E+Y31Q+N35Q+W56N+E61C+S62E	0.71 0.42 0.66 0.33 0.72 0.58	0.57	3 of 18 (3.42)
S25L+S28W+V29Y+L30W+W56Q+S62V	0.24 0.10 0.02 0.19 -0.06 0.35	0.14	0 of 18
S25L+S26E+Q27M+L30Q+Y31M+W56S+S62R	0.15 0.20 0.01 -0.15 0.05 0.02	0.04	0 of 18
S25A+S26R+V29N+S33D+K36Q+W56S+T59Q+E61L+S62D	0.12 0.02 0.02 -0.02 0.01 0.03	0.03	0 of 18
S25C+S26D+V29Q+L30D+S38W+W56N+T59Q	0.94 0.74 0.62 0.49 0.64 0.84	0.71	2 of 18 (2.85)
S25M+S28E+L30P+Y31L+K36V+W56M+S62M	0.69 0.46 0.04 0.39 0.28 0.56	0.40	1 of 18 (2.85)
S25L+Q27P+V29E+N35Q+K36S+W56N+T59L	0.18 0.07 0.08 0.05 0.01 0.04	0.07	3 of 18 (2.35)
S25V+S26P+Q27F+S38A+W56Q+S62K	-0.02 -0.27 -0.05 -0.35 -0.03 -0.04	-0.13	1 of 18 (2.66)
S25F+S28L+V29Q+W56N+H98W	0.33 0.24 0.24 0.39 -0.08 0.52	0.28	1 of 18 (2.42)
S25L+Q27N+V29W+Y31M+K36S+W56H+T59K+E61M	0.84 0.78 0.71 1.05 0.91 1.03	0.89	1 of 18 (2.45)
S25L+S26P+Q27N+V29S+S38Q+W56S+T59Q	0.73 1.22 0.70 0.91 0.97 1.06	0.93	0 of 18
K24A+S25V+Q27F+V29H+E32S+W56E+S62Q	0.06 -0.10 -0.12 -0.30 -0.05 0.04	-0.08	0 of 18

Repeated from above, the 3 best binders with a signal in all replicates:

| changes | replicates, log10 nM | mean, log10 nM | signal with controls |
|---|---|---|---|
| S25F+S26E+Q27H+S28M+V29D+W56S+T59Q+E61S | -0.09 -0.31 -0.46 -0.41 -0.53 -0.44 | -0.37 | 0 of 18 |
| S25L+Q27M+N35V+W56E+S58V+T59Q | -0.42 -0.28 -0.37 -0.32 -0.43 -0.07 | -0.31 | 0 of 18 |
| S25L+S26Y+Q27G+S38A+W56G+T59Q+S62K | -0.08 -0.27 -0.53 -0.11 -0.45 0.03 | -0.24 | 0 of 18 |

Data: MIT Lincoln Laboratory AlphaSeq set, Li et al. 2023, doi:10.1038/s41467-023-39022-2, as distributed in FLAb.